# Binding of CDR-mutated scFvs to a peptide of the spike HR2 region

Target peptide (SARS-CoV-2 spike, HR2 region): PDVDLGDISGINAS

Ab-14 is the parent antibody, in scFv form: VH, then the linker GGGGSGGGGSGGGGS, then VL. The heavy chain is unchanged in all variants.
VH: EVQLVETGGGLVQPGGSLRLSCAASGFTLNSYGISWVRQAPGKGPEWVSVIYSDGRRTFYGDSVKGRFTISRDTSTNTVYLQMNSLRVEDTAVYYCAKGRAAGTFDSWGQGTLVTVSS
VL: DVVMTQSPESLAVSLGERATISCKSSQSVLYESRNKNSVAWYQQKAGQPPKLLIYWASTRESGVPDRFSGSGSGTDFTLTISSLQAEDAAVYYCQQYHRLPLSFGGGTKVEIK

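Phage display of a naive human antibody library on the peptide gave the parent. These sequences belong to a second round, designed from the earlier measurements on random variants of the parent. Several design methods are mixed in this list. Affinity was read by AlphaSeq, a pooled yeast mating assay with surface-displayed partners. After mating in shaken culture at 30 °C for 16 h, diploids were selected and their barcode pairs sequenced. A regression on co-assayed BCL2-family reference pairs converts the normalised counts of each replicate to an apparent Kd. The assay was run in six technical replicates.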

Variants are written as CDR1, CDR2 and CDR3 of the light chain (limits as in the source). Parent: KSSQSVLYESRNKNSVA, WASTRES, QQYHRLPLS. Scale: log10 of Kd in nM, estimated from mating counts; low values are strong binders. A mean of the replicates is given; it leaves out those without a signal. Where no diploid with the target was found in that replicate, the entry reads "ND": below detection, most likely a poor binder, though not proof of it. The authors' rule: three or more of the six replicates give a measured affinity, fewer mean a poor binder.

log10 Kd, replicates	log10 Kd (nM), mean	CDR-L1	CDR-L2	CDR-L3
ND / ND / 1.70 / ND / ND / 1.97	1.83	KSSQSQLYESFNKNSVA	WASTRES	QQYHRLPLS
ND / ND / ND / ND / ND / ND	ND	KSSQSVLNESRNKNSVA	WASTRES	QQYHRNPLS
0.17 / 0.33 / 0.24 / 0.36 / 0.16 / 0.09	0.22	KLSQSVLYESRNKNSVA	NASQRCS	QQYHRLPLS
0.85 / 0.70 / 0.32 / 0.55 / 0.67 / 0.66	0.62	KLGYNTGQESFRKDNIA	DVRDREE	QQYHRLPLS
0.23 / 0.27 / -0.05 / 0.18 / 0.07 / 0.37	0.18	KQSQSVLYESRNKNAVA	DASTRES	QSYHWLPLS
ND / ND / ND / ND / ND / ND	ND	MISHVMNTLTRNGNNVA	DLEEREN	QQYFRLPLS
0.63 / 0.72 / 0.63 / 1.39 / 0.63 / 0.83	0.80	KCSQSVLQESRNKNSVA	EASQRER	QQYHRLPLS
-0.05 / 0.14 / 0.21 / 0.11 / 0.12 / 0.11	0.11	KVLQSVLYEERNKNSVA	HASTRED	QQYHRLPLS
0.72 / 0.35 / 0.78 / 0.29 / 0.74 / 0.57	0.58	KLQQSMLYESRWKNSVA	QASQREV	QQYHRLPLS
2.19 / 2.25 / 1.20 / 1.70 / 2.29 / 2.61	2.04	KIGHGLTTEMRNRNSVA	QTETRVS	QHYHRLPLS
ND / 1.75 / 2.01 / 1.36 / 2.37 / 1.69	1.84	KSSQSVLYEDTNENSVA	WASTREE	QQYHRLPLS
1.41 / 0.83 / 0.95 / 0.94 / 0.89 / 0.99	1.00	KISQLVNFLGKNKNSVA	QMSTREI	QQYDRLPLS
0.82 / 0.90 / 0.93 / 0.74 / 0.77 / 0.83	0.83	KLIQSVAMLSRNKDSIA	DNSTRES	QQYHRLPLS
-0.28 / -0.15 / -0.24 / -0.17 / -0.27 / 0.27	-0.14	ALGDVTRMESNKKNSIA	DMSTRES	QQYHRLPLS
0.26 / -0.18 / -0.35 / -0.15 / 0.23 / -0.01	-0.03	QIYQAMHTLSQIKDNVA	DVNERGS	QQYYRLPLS
0.36 / 0.14 / 0.29 / 0.32 / 0.28 / 0.46	0.31	KSSMSQEYESRNSNSVA	HASTRED	QQYHRLPLI
-0.08 / -0.05 / -0.31 / -0.24 / -0.25 / -0.17	-0.18	KLSQSELYESRNKNSVA	EASTREE	QQYHRLPLS
ND / ND / 1.39 / 0.57 / 2.39 / 2.90	1.81	KLSQSMLYESRVKNNVA	DASQRES	QMYHRLPLS
0.85 / 0.98 / 2.06 / 0.88 / 1.02 / 0.95	1.12	RIQDHMAVGEMSHSSIA	EESTVMD	QQYSRLPLA
1.98 / 0.73 / 0.50 / 1.35 / 0.69 / 0.93	1.03	MLWQQMYGFNLHKDAIA	NGKERTG	QQYGRLPLS
ND / ND / ND / ND / ND / ND	ND	KNSQSVLYESDNKNSVA	WASTPES	QVYHSLPLS
ND / ND / 1.87 / 1.24 / 1.61 / 0.93	1.41	TLMYWGEWEGENKKSVA	NAIIKNE	QQYSRLPLA
2.28 / 3.30 / 1.73 / 1.30 / 1.43 / 2.25	2.05	HMSMLTMMGMRHRNSVA	QMTMREN	QQYDRLPLA
0.74 / 0.87 / 1.05 / 0.69 / 1.17 / 0.91	0.91	HIDIINRGEDMKQDPIA	QADHREQ	QQYFQLPLI
-0.04 / 0.09 / -0.17 / -0.20 / -0.16 / 0.07	-0.07	KSPQSVLYESRNKNSVA	HASTRED	QQYHRLPLS
ND / 2.33 / 2.78 / 1.66 / 2.73 / 1.92	2.28	TLSQMSGVESVKRNNVA	ENSTREK	QQYDRLPLA
0.75 / 0.70 / 0.59 / 0.45 / 0.51 / 0.46	0.58	TLTQVQGMESHNENSVA	DLSTRGS	QQYHRLPLS
0.99 / 1.76 / 0.75 / 0.87 / 0.68 / 2.43	1.25	KSSGSYLYESRNKNSVA	AASTRES	QQYHRLPLS
ND / ND / ND / 2.38 / 2.30 / ND	2.34	HMSTLTLMGQRHRNSVA	QMTTREN	QQYDRLPLS
1.12 / 1.05 / 1.28 / 0.47 / 1.73 / 1.60	1.21	KVSQSVLYESRNKNSVA	NASTRES	QDYHRLPLM
1.24 / ND / ND / ND / ND / ND	1.24	SCPSEMDQQQEQVNSVA	GEQHTAD	QQYGRLPLS
ND / ND / ND / ND / ND / ND	ND	TISQLMNMGQFAINSVA	QASIRNH	QQYDRLPLM
1.18 / 1.15 / 0.28 / 0.55 / 1.08 / 1.06	0.88	KSSQSVLYESRNKNSVA	WASTRES	QQYHRLPIR
0.91 / 0.95 / 0.80 / 0.69 / 0.82 / 0.98	0.86	KLSQFYRMESRNKNSVA	DNSTRER	QQYDRLPLS
0.27 / -0.03 / -0.09 / -0.19 / 0.07 / 0.25	0.05	KVEQSDLLESRNKQSVA	QASTRMS	QQYHRLPLS
0.15 / 0.00 / -0.12 / -0.33 / -0.07 / 0.09	-0.05	KVSQSVLYESRNKNSVA	SASTRES	QQYHRLPLS
ND / ND / ND / 2.94 / ND / ND	2.94	SLYEMNYELSGKTHSVA	DNSTRGE	QQYFRLPLD
ND / ND / 2.05 / 2.35 / 2.37 / ND	2.26	KSSQTVEYESRNHNSVA	WTSTRES	QQYKRLPLS
-0.12 / -0.22 / -0.06 / -0.77 / 0.11 / -0.03	-0.18	KLQQSVLYESRDKNSVA	HASTRED	QQYHRLPLS
0.42 / 0.42 / 0.43 / 0.50 / 0.59 / 0.54	0.48	NIVGRVEDKQTENNNIA	DAHCRAG	QQYSRLPLS
1.24 / 1.19 / 0.87 / 0.92 / 1.09 / 1.11	1.07	MVTQMAMTGMMSKRSVA	NATTREP	QQYHRLPLI
-0.08 / -0.22 / -0.16 / -0.31 / -0.30 / 0.04	-0.17	ALGDVTRMESNKKNSIA	DMSTRAS	QQYHRLPLS
0.07 / 0.03 / -0.24 / -0.04 / -0.53 / -0.03	-0.12	QIMHFGLEANLNSKNVA	AKNLRVD	QQYNRLPLS
ND / 1.99 / ND / ND / 2.76 / 2.48	2.41	KSSQSVLYESSNLNSVA	WASTRES	QQYHHIPLS
0.06 / -0.02 / -0.11 / -0.06 / 0.06 / -0.25	-0.05	KLSQSVLYESRNKNSVA	NASQRES	QDYHRLPLS
ND / ND / ND / ND / 2.28 / ND	2.28	MISQLWNMGQFAINSVA	QASLRCN	QQYDRLPLM
0.76 / 1.25 / 1.03 / 0.74 / 0.70 / 0.51	0.83	KLMVFPTNAGMTQANIA	DASHSTD	QQYERLPLM
ND / 4.05 / ND / ND / ND / ND	4.05	QINMEMNHDLDDEQNVA	DAMTEVK	QQYGRLPLS
1.72 / 2.44 / 2.22 / ND / 1.66 / 2.39	2.09	KISQMVRVGATHNNSIA	EEVTRAK	QQYHRLPLA
0.41 / 0.33 / 0.28 / 0.26 / 0.28 / 0.46	0.33	KLEQSVLYEERNKNSVA	NASQRES	QQYHRLPLS
-0.04 / -0.22 / -0.11 / -0.16 / -0.25 / -0.09	-0.14	KLEWSDLLESRNKQSVA	NASQRER	QQYHRLPLS
0.72 / 0.45 / 0.49 / 0.65 / 0.89 / 0.70	0.65	ASSQSVLYESRNKNSVA	EASTREN	QQYHRLPLS

A selection of 4 entries from above:

CDR-L1,CDR-L2,CDR-L3,"log10 Kd, replicates","log10 Kd (nM), mean"
TLSQMSGVESVKRNNVA,ENSTREK,QQYDRLPLA,ND / 2.33 / 2.78 / 1.66 / 2.73 / 1.92,2.28
KCSQSVLQESRNKNSVA,EASQRER,QQYHRLPLS,0.63 / 0.72 / 0.63 / 1.39 / 0.63 / 0.83,0.80
MISHVMNTLTRNGNNVA,DLEEREN,QQYFRLPLS,ND / ND / ND / ND / ND / ND,ND
KQSQSVLYESRNKNAVA,DASTRES,QSYHWLPLS,0.23 / 0.27 / -0.05 / 0.18 / 0.07 / 0.37,0.18

A sequence measured in both rounds can read differently, since the two assays cover different ranges. Nonspecific signal, from three strains lacking the peptide, appeared in 4% of pairings of all light chain designs, centred on 2.64 (5% of these signals below 1.59); values are not corrected for it. The parent sequence was in this pool as ten entries: three were never detected, three once, and four in most replicates, with averages from 0.34 to 2.37.

Source: Li et al. 2023 (doi:10.1038/s41467-023-39022-2), MIT Lincoln Laboratory and A-Alpha Bio; data file from the FLAb repository.